Reference: paper PMC9082524, “Aromatic heterocycle galectin-1 interactions for selective single-digit nM affinity ligands” (RSC Advances, 2018)

Sequences of proteins named here, by UniProt entry; tags and fusion partners are left off.
UniProt P17931, whole entry: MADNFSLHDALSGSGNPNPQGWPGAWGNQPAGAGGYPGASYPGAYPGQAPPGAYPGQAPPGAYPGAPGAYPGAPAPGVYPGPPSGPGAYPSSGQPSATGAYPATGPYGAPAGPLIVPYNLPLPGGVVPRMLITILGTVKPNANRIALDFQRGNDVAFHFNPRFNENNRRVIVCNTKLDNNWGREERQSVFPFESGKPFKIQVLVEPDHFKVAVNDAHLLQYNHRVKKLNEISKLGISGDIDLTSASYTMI

Target: galectin-3 (Homo sapiens, UniProt P17931)
Test: Competitive fluorescence polarization, galectin-3 (performed as described in ref 13)

SMILES | Kd
Cc1ccc(S[C@@H]2O[C@H](CO)[C@H](O)[C@H](n3cc(-c4ccsc4)nn3)[C@H]2O)cc1 [compound 7, p-Methylphenyl 3-deoxy-3-[4-(thien-3-yl)-1H-1,2,3-triazol-1-yl]-1-thio-β-D-galactopyranoside] | 200 ± 10 µM
Cc1ccc(S[C@@H]2O[C@H](CO)[C@H](O)[C@H](n3cc(-c4cccs4)nn3)[C@H]2O)cc1 [compound 6, p-Methylphenyl 3-deoxy-3-[4-(thien-2-yl)-1H-1,2,3-triazol-1-yl]-1-thio-β-D-galactopyranoside] | 180 ± 10 µM
